Values quoted from earlier work, collected in publication PMC5903342, “Atorvastatin Downregulates In Vitro Methyl Methanesulfonate and Cyclophosphamide Alkylation-Mediated Cellular and DNA Injuries” (Oxidative Medicine and Cellular Longevity, 2018).

System: human umbilical vein endothelial cells (HUVEC)
Details: effects caused by doxorubicin, etoposide, and MMS; cited from earlier work

Structure (SMILES): CC[C@H](C)C(=O)O[C@H]1C[C@@H](C)C=C2C=C[C@H](C)[C@H](CC[C@@H]3C[C@@H](O)CC(=O)O3)[C@H]21 [LOVA, lovastatin]
- Prevention of genotoxic and cytotoxic effects: prevent genotoxic and cytotoxic effects
